Test results reported in patent US11491168B2, “Combination of Bcl-2/Bcl-xL inhibitors and chemotherapeutic agent and use thereof” (ASCENTAGE PHARMA (SUZHOU) CO., LTD., priority 2019, dated 2022).

System: subcutaneous NCI-H1975-L858R-T790M-C797S NSCLC xenograft
Assay: NCI-H1975-L858R-T790M-C797S NSCLC xenograft model
Conditions: for RTV @ D22: Compound 15 100 mg/kg i.v. twice a week, Cisplatin 5 mg/kg i.v. once a week, TXT 8 mg/kg i.v. once a week; for mRECIST @ D29 / mRECIST_best: PR, SD, PD; for T/C @ D22: Table 8, printed as fraction; for RTV @ D29: doses as b332; for T/C @ D29: given as fraction; for T/C value: at day 22, text

Row | SMILES | RTV @ D22 | mRECIST @ D29 | mRECIST_best | T/C @ D22 | RTV @ D29 | T/C @ D29 | mRECIST @ D29 (listed as TXT) | mRECIST_best (listed as TXT) | T/C value
1 | Cc1c(S(C)(=O)=O)c(-c2cc(F)cc(N3CCN(c4ccc(NS(=O)(=O)c5ccc(N[C@H](CCN6CCC(C(=O)OCCP(=O)(O)O)CC6)CSc6ccccc6)c(S(=O)(=O)C(F)(F)F)c5)cc4)CC3)c2)c(-c2ccc(Cl)cc2)n1C(C)C [Compound 15, (R)-2-(1-(3-(4-(N-(4-(4-(3-(2-(4-chlorophenyl)-1-isopropyl-5-methyl-4-(methylsulfonyl)-1H-pyrrol-3-yl)-5-fluorophenyl)piperazin-1-yl)phenyl)sulfamoyl)-2-(trifluoromethylsulfonyl)phenylamino)-4-(phenylthio)butyl)piperidine-4-carbonyloxy)ethylphosphonic acid] | 3.4 ± 0.6 | 5/5 PD | 5/5 PD | 0.590 | 5.7 ± 1.7 | 0.630 |  |  | 
2 | CC(=O)O[C@@]12CO[C@@H]1C[C@H](O)[C@@]1(C)C(=O)[C@H](O)C3=C(C)[C@@H](OC(=O)[C@H](O)[C@@H](NC(=O)OC(C)(C)C)c4ccccc4)C[C@@](O)([C@@H](OC(=O)c4ccccc4)[C@H]21)C3(C)C [docetaxel] | 1.2 ± 0.3 |  |  | 0.380 | 1.1 ± 0.2 | 0.120 | 3/5 SD, and 2/5 PD | 1/5 PR, 2/5 SD, and 2/5 PD | 21.4%
3 | N.N.[Cl][Pt][Cl] [cisplatin] | 3.7 ± 0.9 | 5/5 PD | 1/5 SD, 4/5 PD |  | 4.6 ± 1.5 |  |  |  | 66.1%

Where “and” joins values, the source holds several entries; their conditions need not be identical. Equal entries are not always repeated.
